Here are results for one substance from patent publication US20250074970A1, “METHOD OF PURIFYING IMMUNOGLOBULIN G AND USES THEREOF” (CSL Behring AG, priority 2021, published 2025).

The series in a line: 2D Difference Gel Electrophoresis (2D DIGE), isoelectric point. It counts as physicochemical. Conditions: FcXP POROS eluate from clarified CPP, separation between pH 3 and 10. The method, then:
To determine the isoelectric point (pI) of impurities in the eluate compared to IgG, 2D Difference Gel Electrophoresis (2D DIGE) was performed. Samples of purified IgG from clarified CPP (FcXP POROS® eluate) were loaded with Sci5 and Sci3 dye respectively and loaded onto a 2D-SDS-PAGE. Separation of the samples by isoelectric point was performed between pH 3 and 10, followed by separation by size in the presence of SDS under reducing conditions (FIG. 2). IgG was identified to have isoelectric points between pH 7 and 9 in FcXP POROS® eluate samples (FIG. 2). IgM and albumin were identified in the eluate to have a pH of approximately 6.5 (circle in FIG. 2) which is lower than the isoelectric points of IgG.

Consider “albumin: impurity identified in the eluate”, for which the isoelectric point entry is “approximately 6.5 pH”.
